Experiments:
[1] = biological target: catalytic domain of human stromelysine (Homo sapiens, UniProt P08254); test: Enzyme inhibition, catalytic domain of human stromelysine (fluorogenic substrate); details: read-out: Stromelysine IC 50; hydroxamic acids up to and including Example 33; tris/HCl buffer pH=7.5
[2] = biological target: catalytic domain of neutrophil collagenase (Homo sapiens, UniProt P22894); test: Enzyme inhibition, catalytic domain of neutrophil collagenase (fluorogenic substrate); details: read-out: Neutrophil collagenase IC 50; hydroxamic acids up to and including Example 33; tris/HCl buffer pH=7.5
[3] = biological target: catalytic domain of stromelysine-1 (Homo sapiens, UniProt P08254); test: Proteoglycan degradation assay (bovine aggrecan, ELISA with antibody 5-D-4); details: read-out: Proteoglycane degradation IC50; bovine nasal proteoglycane, 60 ng stromelysine-1 catalytic domain, MES pH 6.0, RT 3 h

Sequences of proteins named here, by UniProt entry; tags and fusion partners are left off. Residues count along the entry.
UniProt P08254, 100-272 limits assumed: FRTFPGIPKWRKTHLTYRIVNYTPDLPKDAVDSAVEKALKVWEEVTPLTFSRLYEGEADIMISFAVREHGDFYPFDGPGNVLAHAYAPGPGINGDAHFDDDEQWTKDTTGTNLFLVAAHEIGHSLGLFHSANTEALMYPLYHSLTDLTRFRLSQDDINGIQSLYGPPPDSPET
UniProt P22894, 100-262 limits assumed: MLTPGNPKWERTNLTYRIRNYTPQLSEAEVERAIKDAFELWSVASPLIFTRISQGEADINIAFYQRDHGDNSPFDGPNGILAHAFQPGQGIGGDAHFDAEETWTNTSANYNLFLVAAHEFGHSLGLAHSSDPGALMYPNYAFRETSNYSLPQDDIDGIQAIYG

With `COc1ccc(S(=O)(=O)N2Cc3cc(O)ccc3C[C@@H]2C(=O)NO)cc1` the IC50 [1] was 10 nM, the IC50 [2] was 1 nM and the IC50 [3] was 130 nM.
